Biological target: PRC2-Ezh2 (Homo sapiens, UniProt O75530)
Assay: HKMT assay, stimulation of PRC2-Ezh2 by histone peptides
Format: biochemical
Details: read-out: half maximum stimulation of PRC2 activity; H3K27me3 peptide, Fig. S7

Amino acid sequences for entries named in this document (tags omitted).
UniProt O75530, whole entry: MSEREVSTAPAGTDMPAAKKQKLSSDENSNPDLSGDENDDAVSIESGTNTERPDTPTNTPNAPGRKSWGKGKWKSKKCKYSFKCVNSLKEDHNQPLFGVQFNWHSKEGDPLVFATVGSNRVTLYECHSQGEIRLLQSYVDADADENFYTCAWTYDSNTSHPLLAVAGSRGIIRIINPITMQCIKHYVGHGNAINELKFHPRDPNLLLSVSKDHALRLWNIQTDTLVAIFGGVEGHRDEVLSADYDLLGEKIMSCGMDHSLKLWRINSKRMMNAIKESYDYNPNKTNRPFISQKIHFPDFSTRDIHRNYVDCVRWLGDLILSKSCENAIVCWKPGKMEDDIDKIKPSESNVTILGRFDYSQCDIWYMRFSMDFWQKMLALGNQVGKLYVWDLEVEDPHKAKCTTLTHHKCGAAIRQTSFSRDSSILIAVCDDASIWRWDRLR

“H3K27me3: synthetic histone H3 peptide trimethylated on lysine 27 (TKAARKSAPAT; trimethyl-Lys27 of mature H3)” showed an EC50 of 30 to 40 µM.

Source: PMC3772642 (Nature, 2009)
